Test results: patent publication US20100098761A1, “Polymer Compositions For Biomedical And Material Applications” (University of Massachusetts Medical School, priority 2007, published 2010)

System: murine myoblast C2C12 cells
Assay: Osteogenic trans-differentiation of C2C12 cells (ALP stain)
Assay type: cell-based, mouse
Method: Grafts (5×5×1 mm, FlexBone 25% HA-25% TCP) were pre-absorbed with varying amounts of growth factors and cytokines to provide an exogenous supply for remodeling. Grafts loaded with growth factors rhBMP-2, rmRANKL, and rhVEGF165 were analyzed at the respective preferred doses. The preferred loading dose of RANKL (10 ng/FlexBone graft) was determined by the osteoclastic differentiation of macrophage RAW264.7, induced by the RANKL released from the graft as indicated by positive TRAP stains (purple) of multinucleated cells on Day 6. […] The preferred loading dose of rhBMP-2/7 heterodimer (40 ng/FlexBone graft) was determined by the osteogenic differentiation of C2C12 cells induced by the BMP-2/7 released from the graft in culture. […] Finally, the preferred loading dose of rhVEGF165 in stimulating the proliferation of human vascular endothelial cells in culture was determined to be 5 ng/graft.
Materials. […] The compressive behavior of FlexBone in fully hydrated state as a function of TCH content was analyzed using a Q800 Dynamic Mechanical Analyzer (DMA, TA Instruments) equipped with a submersion compression fixture. […] An L-square was used to make sure that the sanded top and bottom surfaces were parallel prior to testing, and the final dimensions of each specimen were measured by a digital caliper. […]

B1: rhBMP-2/7: recombinant human bone morphogenetic protein-2/7 heterodimer, R&D Systems (protein, UniProt P12643 283-396; P18075 293-431, looked up)
Bone morphogenetic protein 2: QAKHKQRKRLKSSCKRHPLYVDFSDVGWNDWIVAPPGYHAFYCHGECPFPLADHLNSTNHAIVQTLVNSVNSKIPKACCVPTELSAISMLYLDENEKVVLKNYQDMVVEGCGCR
Bone morphogenetic protein 7: STGSKQRSQNRSKTPKNQEALRMANVAENSSSDQRQACKKHELYVSFRDLGWQDWIIAPEGYAAYYCEGECAFPLNSYMNATNHAIVQTLVHFINPETVPKPCCAPTQLNAISVLYFDDSSNVILKKYRNMVVRACGCH
modifications: heterodimer
notes: recombinant human bone morphogenetic protein-2/7 heterodimer, R&D Systems
For B1, the preferred loading dose (determined by osteogenic differentiation of C2C12 cells induced by released BMP-2/7) was 40 ng/FlexBone graft and the “osteogenic trans-differentiation (ALP activity)” value (single dose 40-ng/mL directly in culture without graft carrier, day three) was “able to induce osteogenic trans-differentiation of C2C12”.
